## AlphaSeq binding of Ab-14 heavy chain variants to a spike HR2 peptide

Data: MIT Lincoln Laboratory AlphaSeq set, Engelhart et al. 2022, doi:10.1038/s41597-022-01779-4, as distributed in FLAb.

The target is the same throughout: PDVDLGDISGINAS, from the HR2 region of SARS-CoV-2 spike.

Ab-14 is the parent antibody, in scFv form: VH, then a 15-residue (Gly4Ser)3 linker, then VL. The light chain is unchanged in all variants.
VH: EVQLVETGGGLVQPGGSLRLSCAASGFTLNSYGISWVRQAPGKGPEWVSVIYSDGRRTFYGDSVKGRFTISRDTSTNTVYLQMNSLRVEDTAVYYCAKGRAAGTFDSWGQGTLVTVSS
VL: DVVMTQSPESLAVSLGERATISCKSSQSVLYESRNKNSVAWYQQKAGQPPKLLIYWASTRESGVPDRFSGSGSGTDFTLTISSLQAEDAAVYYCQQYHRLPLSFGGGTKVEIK

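The parent was found by panning a naive human phage display library on the peptide. AAYL49 was designed without a model: most single CDR substitutions and a random sample of double and triple ones. In AlphaSeq, yeast of one mating type display the scFv and yeast of the other type display the target. Mating (16 h, 30 °C) was followed by selection of diploids and sequencing of their barcodes. A regression on co-assayed BCL2-family reference pairs converts the normalised counts of each replicate to an apparent Kd. There are three technical replicates.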

Positions count from residue 1 of the parent VH; N30W puts W in place of N. This list gathers variants with a substitution at R100 (VH, numbered from residue 1). The Kd shown is the geometric mean over detected replicates; a lower Kd is a better binder. "no signal" marks a missing value. The strain was present, yet no cells mated with the target were sequenced in any replicate, which points to weak or no binding. As a blank, each scFv also met three strains without target: over library AAYL49, 15% of these pairings were detected, typically at 11 µM and seldom below 680 nM. In this assay the parent's reference entry averaged 4.4 nM; its copy inside this library read 13 µM (one replicate of three).

changes,Kd,detected
N30W/R100M/A102K,no signal,0/3
V64N/R100G/A101F,39 µM,2/3
S35P/R100C/A101E,56 µM,1/3
S35L/R100N/S107R,680 µM,2/3
L29F/R100V,40 nM,1/3
S31A/G33R/R100A,940 nM,1/3
Y52F/D54N/R100S,no signal,0/3
G26P/R100F/D106L,32 nM,3/3
V50G/T58I/R100M,15 µM,1/3
Y52D/R100E/A101M,no signal,0/3
R56F/G99P/R100G,no signal,0/3
S31L/R57F/R100Q,120 µM,2/3
G33Q/R100I/T104M,no signal,0/3
S53E/R57Y/R100L,8.2 µM,1/3
V64T/R100A/F105R,2.8 µM,3/3
R56L/G99R/R100M,no signal,0/3
L29N/R100Y/A102D,16 µM,1/3
S31F/G55E/R100K,70 µM,1/3
R57N/V64A/R100S,no signal,0/3
D54E/K65P/R100Q,no signal,0/3
V64A/K65C/R100Y,130 nM,3/3
L29A/V50T/R100F,no signal,0/3
I51F/T58F/R100G,60 µM,3/3
G33C/I34K/R100S,2.5 µM,2/3
F27M/T28N/R100W,30 nM,3/3
G26T/S31G/R100Y,no signal,0/3
G33V/R56N/R100F,4.8 µM,1/3
I34F/R100E,no signal,0/3
S35N/K65D/R100W,no signal,0/3
T28A/V64Q/R100T,50 nM,3/3
T28W/T58S/R100C,no signal,0/3
K65L/R100F/D106S,50 µM,1/3
D62F/R100W/S107D,no signal,0/3
N30S/Y52P/R100M,630 nM,1/3
S53V/K65E/R100C,no signal,0/3
G55Y/R100F,no signal,0/3
R56N/D62M/R100N,100 nM,1/3
V64S/R100Y/D106L,52 µM,2/3
Y60L/R100K/D106A,5.4 µM,2/3
L29C/R100F,1.9 µM,3/3
F27T/R100E/D106T,28 µM,2/3
I34G/R100M,no signal,0/3
I34L/S53G/R100K,1.4 µM,1/3
S35I/V50S/R100S,no signal,0/3
T58H/R100D,6.0 nM,3/3
I51P/Y52K/R100P,160 µM,1/3
Y52M/G61N/R100C,no signal,0/3
G99F/R100F/T104A,no signal,0/3
S31N/D62N/R100W,12 nM,3/3
R100T/D106H,110 nM,1/3
R57K/R100H/F105K,79 nM,3/3
D54N/R100M/T104I,3.4 µM,2/3
G26Q/I34W/R100K,34 µM,1/3
G61Q/R100G/S107W,4.4 nM,3/3
V50S/R100D,1.4 mM,1/3
F27A/G55W/R100A,no signal,0/3
G26M/G61Q/R100P,21 µM,2/3
F59K/G99N/R100E,12 µM,1/3
S63L/R100S,90 nM,3/3
G61L/R100K/G103V,no signal,0/3
V50C/S53G/R100Q,no signal,0/3
R56M/G61K/R100G,7.5 nM,3/3
S31I/R100Y,no signal,0/3
F27D/D62E/R100K,57 nM,1/3
G33R/R100Y/A102Q,no signal,0/3
S31Y/R100C,100 µM,3/3
G33W/S35W/R100I,42 µM,3/3
I51Y/S53P/R100Q,no signal,0/3
T28M/R100I/F105H,65 µM,1/3
G99F/R100P/D106M,no signal,0/3
I34W/D62V/R100S,no signal,0/3
R56L/R100S/A101F,17 µM,3/3

Top 6 of the variants detected in all replicates, tightest first:

{"changes": "G61Q/R100G/S107W", "Kd": "4.4 nM", "detected": "3/3"}
{"changes": "T58H/R100D", "Kd": "6.0 nM", "detected": "3/3"}
{"changes": "R56M/G61K/R100G", "Kd": "7.5 nM", "detected": "3/3"}
{"changes": "S31N/D62N/R100W", "Kd": "12 nM", "detected": "3/3"}
{"changes": "F27M/T28N/R100W", "Kd": "30 nM", "detected": "3/3"}
{"changes": "G26P/R100F/D106L", "Kd": "32 nM", "detected": "3/3"}